How the values were obtained:
[1] = molecular target: T1, LXRα LBD (Homo sapiens, UniProt Q13133); test: differential HDX-MS of LXRα LBD (apo vs ligand-bound); conditions: after 600 s of deuterium exchange
[2] = molecular target: LXRα (Homo sapiens, UniProt Q13133); test: Gal4 one hybrid reporter gene (transactivation) assay in U2OS cells, LXRα; assay type: cell-based; conditions: Gal4-LXRα LBD, value (SD, n)
[3] = molecular target: T1, LXRα LBD
[4] = molecular target: LXRβ (Homo sapiens, UniProt P55055); test: Gal4 one hybrid reporter gene (transactivation) assay in U2OS cells, LXRβ; assay type: cell-based; conditions: Gal4-LXRβ LBD, value (SD, n)
[5] = molecular target: LXRβ LBD (Homo sapiens, UniProt P55055)
[6] = tested on: Abca1 mRNA in intestine; test: intestinal Abca1 mRNA induction in C57BL/6 mice (Emax model)

Protein sequences, listed by entry. Tags and fused reporters are not part of them. Residues count along the entry.
UniProt Q13133, 200-447 limits assumed: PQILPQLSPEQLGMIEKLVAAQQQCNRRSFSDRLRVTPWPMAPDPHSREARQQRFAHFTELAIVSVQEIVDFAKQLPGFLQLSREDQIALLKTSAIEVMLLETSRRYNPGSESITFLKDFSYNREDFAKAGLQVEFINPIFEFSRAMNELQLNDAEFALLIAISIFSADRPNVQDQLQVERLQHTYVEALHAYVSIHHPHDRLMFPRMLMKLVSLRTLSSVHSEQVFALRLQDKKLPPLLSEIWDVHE
UniProt Q13133, 209-447 limits assumed: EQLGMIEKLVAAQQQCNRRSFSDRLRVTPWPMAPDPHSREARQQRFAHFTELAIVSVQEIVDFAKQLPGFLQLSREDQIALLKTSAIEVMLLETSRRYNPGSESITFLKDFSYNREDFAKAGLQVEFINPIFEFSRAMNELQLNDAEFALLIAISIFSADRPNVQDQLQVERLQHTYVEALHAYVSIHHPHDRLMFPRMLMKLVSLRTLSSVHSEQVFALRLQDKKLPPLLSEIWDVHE
UniProt P55055, 215-460 limits assumed: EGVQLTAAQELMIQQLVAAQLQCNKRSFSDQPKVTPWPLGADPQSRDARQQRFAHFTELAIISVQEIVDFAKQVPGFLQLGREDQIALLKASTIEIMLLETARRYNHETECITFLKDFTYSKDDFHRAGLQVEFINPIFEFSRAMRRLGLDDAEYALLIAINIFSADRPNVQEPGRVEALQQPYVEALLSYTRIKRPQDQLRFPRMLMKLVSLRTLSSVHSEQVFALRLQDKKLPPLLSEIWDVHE
UniProt P55055, 222-460 limits assumed: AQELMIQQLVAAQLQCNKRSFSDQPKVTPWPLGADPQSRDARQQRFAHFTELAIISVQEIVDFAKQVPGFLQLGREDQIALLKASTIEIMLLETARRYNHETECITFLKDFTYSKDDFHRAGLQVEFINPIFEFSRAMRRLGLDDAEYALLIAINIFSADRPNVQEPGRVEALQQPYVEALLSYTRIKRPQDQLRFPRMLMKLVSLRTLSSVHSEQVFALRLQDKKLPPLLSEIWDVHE

protection of LXRα H3 from deuterium exchange [1]: no effect
LXRα transactivation pEC50 [2]: 6.33 (0.14, n = 3)
Ki [3]: 575 nM
LXRβ transactivation pEC50 [4]: 6.55 (0.11, n = 4)
Ki [5]: 81.3 nM
Compound: CC(C)(C)N1C(=O)C(Cc2ccccc2)=C(NCCc2ccc(S(N)(=O)=O)cc2)C1=O
class of intestinal Abca1 induction [6]: low ABCA1 inducers
Abca1 mRNA induction in intestine Attributed class ([6]; mouse, in vivo): Low ABCA1 (compounds AZ5, AZ8, AZ9, and LXR-623 with weaker potencies were assigned to the second class (low ABCA1 inducers))
Abca1 mRNA induction in intestine ED50 ([6]; oral gavage daily for 4 days, C57BL/6 mice, (% RSE)): 32.2 (11) µmol kg^−1

— article PMC6874530, “Structural analysis identifies an escape route from the adverse lipogenic effects of liver X receptor ligands” (Communications Biology, 2019)
